Data taken from patent publication EP0329295A1, “Renin inhibiting peptides with polar end groups” (THE UPJOHN COMPANY, priority 1988, dated 1989).

By UniProt entry, the sequences of proteins in these tests, tags left out. Residues count along the entry.
UniProt P00797, 67-406 limits assumed: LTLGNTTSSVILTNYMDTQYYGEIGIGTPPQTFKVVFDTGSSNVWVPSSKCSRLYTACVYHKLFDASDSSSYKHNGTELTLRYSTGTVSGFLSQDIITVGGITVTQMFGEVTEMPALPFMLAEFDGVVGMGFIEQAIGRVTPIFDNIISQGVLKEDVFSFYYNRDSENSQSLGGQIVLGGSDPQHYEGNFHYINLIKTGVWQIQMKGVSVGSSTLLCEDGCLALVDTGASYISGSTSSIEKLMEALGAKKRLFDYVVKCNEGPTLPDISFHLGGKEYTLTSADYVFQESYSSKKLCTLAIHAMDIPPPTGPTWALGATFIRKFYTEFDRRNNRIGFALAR

Target: renin (Homo sapiens, UniProt P00797)
Assay: renin inhibitory activity (IC50), determined as described in EP 0173481, pages 103-105
Settings: renin inhibition; values given in molar units
From the text: The determination of renin inhibitory activity of the compounds of the present invention (ICso's) are well known to one of ordinary skill in the art, as, for example, described in published European application 0173481, published 5 March 1986, pages 103-105.

CC(=O)OC[C@H]1O[C@@H](N=[N+]=[N-])[C@@H](OC(C)=O)[C@@H](OC(C)=O)[C@@H]1OC(C)=O
IC50: 36 nM
